We go through 1 molecule from BindingDB's records for doi:10.1021/acs.jmedchem.8b00327 (2019).

Each structure is given as a SMILES string.

The assay deals with T1, Glutaminase kidney isoform, mitochondrial (Homo sapiens, UniProt O94925).
T1 sequence (O94925 whole entry): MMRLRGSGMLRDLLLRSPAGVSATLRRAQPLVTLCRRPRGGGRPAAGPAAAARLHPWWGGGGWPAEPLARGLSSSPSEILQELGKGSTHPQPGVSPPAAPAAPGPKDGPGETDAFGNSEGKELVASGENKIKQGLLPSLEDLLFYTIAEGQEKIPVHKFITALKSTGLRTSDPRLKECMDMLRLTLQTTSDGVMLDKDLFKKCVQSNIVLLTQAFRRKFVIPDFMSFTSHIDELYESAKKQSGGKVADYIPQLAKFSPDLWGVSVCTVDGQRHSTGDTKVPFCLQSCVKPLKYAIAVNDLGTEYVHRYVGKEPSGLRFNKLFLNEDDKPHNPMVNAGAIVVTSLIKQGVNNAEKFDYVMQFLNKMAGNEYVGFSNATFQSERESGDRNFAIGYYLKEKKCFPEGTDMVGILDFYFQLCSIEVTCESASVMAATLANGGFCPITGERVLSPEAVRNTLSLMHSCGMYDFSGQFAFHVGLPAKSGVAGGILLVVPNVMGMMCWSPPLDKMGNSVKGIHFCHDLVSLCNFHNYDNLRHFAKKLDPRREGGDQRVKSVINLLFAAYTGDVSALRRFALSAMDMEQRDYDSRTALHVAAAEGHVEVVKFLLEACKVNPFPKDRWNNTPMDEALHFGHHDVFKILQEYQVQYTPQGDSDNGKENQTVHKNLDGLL
The assay can be described thus: Inhibition of GAC (unknown origin) assessed as NADH formation using 10 mM glutamine as substrate preincubated for 60 mins.

One may read the IC50 as the concentration that gives 50% inhibition. In the case of `O=C(Cc1ccccc1)Nc1nnc(CCCCc2nnc(NC(=O)Cc3ccccc3)o2)o1`, the IC50 is more than 20 µM.
